Measurements reported in EP4837905A1, “BIPHENYL DERIVATIVE, PHARMACEUTICAL COMPOSITION AND USE THEREOF” (dated 2026).

The chains behind the UniProt entries cited, without tags or fusion partners.
UniProt Q9UKE5, whole entry: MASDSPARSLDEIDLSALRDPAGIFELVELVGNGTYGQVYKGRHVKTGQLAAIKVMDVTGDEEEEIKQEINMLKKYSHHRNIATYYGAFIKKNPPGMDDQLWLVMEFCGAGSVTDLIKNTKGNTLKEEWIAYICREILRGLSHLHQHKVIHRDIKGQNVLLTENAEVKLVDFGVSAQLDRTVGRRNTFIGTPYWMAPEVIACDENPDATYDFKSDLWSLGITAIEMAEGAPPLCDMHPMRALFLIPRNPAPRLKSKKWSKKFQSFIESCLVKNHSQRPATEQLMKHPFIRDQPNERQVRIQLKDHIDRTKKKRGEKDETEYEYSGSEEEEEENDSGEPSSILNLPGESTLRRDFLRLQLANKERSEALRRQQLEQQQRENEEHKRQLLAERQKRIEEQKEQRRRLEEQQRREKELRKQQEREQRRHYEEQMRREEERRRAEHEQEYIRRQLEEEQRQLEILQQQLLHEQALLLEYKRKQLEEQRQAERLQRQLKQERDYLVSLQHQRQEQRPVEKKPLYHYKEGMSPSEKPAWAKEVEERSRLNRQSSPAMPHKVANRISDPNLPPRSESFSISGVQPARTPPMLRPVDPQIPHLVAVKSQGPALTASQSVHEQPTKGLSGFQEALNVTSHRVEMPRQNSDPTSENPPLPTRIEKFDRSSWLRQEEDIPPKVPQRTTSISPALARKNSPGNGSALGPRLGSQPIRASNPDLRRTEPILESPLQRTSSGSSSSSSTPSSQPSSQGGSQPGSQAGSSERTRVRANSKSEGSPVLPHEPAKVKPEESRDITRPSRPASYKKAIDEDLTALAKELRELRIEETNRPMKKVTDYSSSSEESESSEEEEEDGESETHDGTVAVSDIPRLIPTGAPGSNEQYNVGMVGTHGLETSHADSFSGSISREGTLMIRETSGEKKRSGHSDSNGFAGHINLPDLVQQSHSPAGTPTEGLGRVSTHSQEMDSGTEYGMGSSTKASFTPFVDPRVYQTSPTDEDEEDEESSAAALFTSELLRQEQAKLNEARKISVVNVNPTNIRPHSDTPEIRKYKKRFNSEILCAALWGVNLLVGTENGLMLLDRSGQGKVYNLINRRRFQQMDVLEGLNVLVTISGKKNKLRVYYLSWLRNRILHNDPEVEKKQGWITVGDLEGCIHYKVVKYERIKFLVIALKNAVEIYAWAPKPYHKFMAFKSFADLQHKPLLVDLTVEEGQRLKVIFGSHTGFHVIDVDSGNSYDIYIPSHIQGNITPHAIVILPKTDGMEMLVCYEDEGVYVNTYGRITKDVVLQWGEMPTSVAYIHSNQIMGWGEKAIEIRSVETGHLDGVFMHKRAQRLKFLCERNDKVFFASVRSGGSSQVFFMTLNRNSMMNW

Experiments:
TNIK = TNIK (Homo sapiens, UniProt Q9UKE5); assay: IC50 screening against target kinase (ADP-Glo); settings: room temperature, 60 minutes reaction, values only in Fig. 15
Text: To further evaluate the binding ability of biphenyl derivatives to target kinases, IC50 was used to detect the inhibitory effect of biphenyl derivatives on target kinases. In this experiment, IC50 represents the concentration of drug or inhibitor required to inhibit the activity of a specified kinase by half. In pharmacology, it is used to characterize the antagonistic ability of antagonists in in vitro experiments.
First, prepare 2 × ATP and substrate mixture solution and 2 × TNIK and MgCl2 mixture solution using test buffer, respectively. Then, transfer 40 nL of small molecules and 2 µL of 2 × TNIK and MgCl2 mixture solution to a 384-well plate. After mixing at room temperature, incubate for 10 minutes. Next, transfer 2 µL of 2 × ATP and substrate mixture solution to the 384-well plate, and react at room temperature for 60 minutes. Add 4 µL of ADP-Glo reagent (supplier: Promega; product number: V9103) to the reaction system, and incubate at room temperature for 40 minutes. Finally, add 8 µL of kinase detection reagent (supplier: Promega; product number: V9103) to the reaction system, incubate at room temperature for 40 minutes, and read the fluorescence signal using a microplate reader. The concentration gradients of biphenyl derivatives I-1, I-4, I-12 are set at 50000 µM, 12500 µM, 3125 µM, 781.3 µM, 195.3 µM, 48.83 µM, 12.21 µM, 3.05 µM, 0.76 µM, and 0.19 µM.
The calculation formula for inhibition rate (%) is: inhibition rate (%) = 100% - (small molecule reading - positive control reading) / (negative control reading - positive control reading) * 100%. By substituting the inhibition rate (%) and the Log value of inhibitor concentration into the nonlinear regression equation, the IC50 of the small molecule can be calculated as: Y = Bottom + (Top - Bottom) / (1 + 10^((LogIC50 - X) * hillslope)), where X is the Log value of inhibitor concentration and Y is the inhibition rate (%).

330 kinases = assay: In vitro kinase profile screening (HTRF or ADP-Glo); settings: I-1 10 mM, 25 nL in DMSO; kinase 15-50 nM; ATP 10-60 µM; 25 °C; values only in Figs. 13-14
Method: Based on the results from Example 1, in vitro kinase profile screening was conducted on the biphenyl derivatives in this application to further confirm the actual functional interactions between these derivatives and target kinases. Through the screening of inhibitory effects on activity among 330 kinases, during the kinase activity assay, the kinase (15-50 nM, 2.5 µL, prepared in assay buffer) was first mixed with biphenyl derivative I-1 (10 mM, 25 nL, prepared in DMSO) and incubated at 25 °C for 10 minutes. Subsequently, a mixture of kinase peptide substrate (0.2 mg/ml; supplier: GenScript) and ATP (10-60 µM; supplier: Promega; product number: V915B) (total 2.5 µL, prepared in assay buffer) was added to the mixed system, and the reaction was allowed to proceed at 25 °C for 60-120 minutes. Finally, the reaction products were quantitatively detected using the HTRF or ADP-Glo method. The composition of the test buffer is as follows: 50 mM HEPES (supplier: Thermo Fisher; product number: 15630080), 10 mM MgCl2 (supplier: Sigma; product number: M1028), 0.01% Brij35 (supplier: Millipore; product number: 1018940100), 1 mM EGTA (supplier: Sigma; product number: E3889), and 2 mM DTT (supplier: MCE; product number: HY-15917). During the kinase activity assay, the consumption of each substrate was less than 10%. Each kinase activity assay was set up with two technical replicates.

Cn1ncc2c(-c3cccc(-c4cccc(N)c4)c3)cccc21
IC50 against the target kinase (TNIK): significant antagonistic activity against the target kinase

Cn1ncc2c(-c3cccc(-c4cc(O)ccn4)c3)cccc21
IC50 against the target kinase (TNIK): significant antagonistic activity against the target kinase

Cn1ncc2c(-c3cccc([C@H]4CNC(=O)C4)c3)cccc21
inhibitory effects on activity among 330 kinases (330 kinases): significant inhibitory effects on multiple target kinases | IC50 against the target kinase (TNIK): significant antagonistic activity against the target kinase
